The values below come from US8455252B2, “Materials and methods for sensitizing multidrug resistant cells” (Indiana University Research and Technology Corp., priority 2008, dated 2013).

Several values for one entry are separate records, joined by “and”; a condition that tells them apart may be missing. Identical values can stand only once.

The data set addresses T1, ABCG2 (Homo sapiens, UniProt Q9UNQ0).
T1 sequence (Q9UNQ0 1-655): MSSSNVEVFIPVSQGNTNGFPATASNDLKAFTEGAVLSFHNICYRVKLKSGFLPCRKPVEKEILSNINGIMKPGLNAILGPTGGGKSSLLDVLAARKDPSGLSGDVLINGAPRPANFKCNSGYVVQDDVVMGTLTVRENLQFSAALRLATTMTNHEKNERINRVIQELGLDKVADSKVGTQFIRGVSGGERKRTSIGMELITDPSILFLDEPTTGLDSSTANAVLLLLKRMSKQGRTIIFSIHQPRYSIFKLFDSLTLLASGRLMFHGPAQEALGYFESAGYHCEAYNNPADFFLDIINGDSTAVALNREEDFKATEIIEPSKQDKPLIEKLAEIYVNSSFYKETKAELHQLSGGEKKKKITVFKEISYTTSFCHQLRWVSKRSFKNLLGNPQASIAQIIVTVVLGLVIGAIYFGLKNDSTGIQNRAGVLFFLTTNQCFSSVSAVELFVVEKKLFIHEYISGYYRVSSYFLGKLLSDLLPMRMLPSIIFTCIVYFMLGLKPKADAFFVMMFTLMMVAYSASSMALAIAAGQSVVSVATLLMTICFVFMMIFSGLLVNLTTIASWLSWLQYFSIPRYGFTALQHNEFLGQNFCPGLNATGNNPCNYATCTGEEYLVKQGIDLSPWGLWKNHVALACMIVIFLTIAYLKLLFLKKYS
As to the kind of experiment: Sensitization of mitoxantrone resistance in HEK293/ABCG2 cells, SRB assay. The settings on record: read-out: IC50 to sensitize mitoxantrone resistance; HEK293/ABCG2, with 0.1 μM mitoxantrone. (In general: In SRB staining, fixed cells bind dye roughly in proportion to their protein.)

Usually IC50 stands for the concentration that gives 50% inhibition. For `COc1ccc2c3c([nH]c2c1)[C@H](C=C(C)C)N1C(=O)[C@@H]2CCCN2C(=O)[C@@H]1C3` [FTC, Fumitremorgin C], the IC50 was ~0.326 µM and 0.326 µM.
